Results published in patent US8367658B2, “Pyrazin-2-yl-pyridin-2-yl-amine and pyrazin-2-yl-pyrimidin-4-yl-amine compounds and their use” (Cancer Research Technology Limited, priority 2007, dated 2013).
“And” between values parts separate entries of the source, which are not always exact repeats. Equal entries are not always repeated.

What follows are compounds tested against T1, CHK1 (Homo sapiens, UniProt O14757) (assay: CHK1 kinase function inhibition assay (DELFIA, phosphorylation of a CDC25C peptide)). Settings: CHK1 1 nM, ATP 30 μM, 30 minutes at room temperature.
T1 sequence (O14757 1-476): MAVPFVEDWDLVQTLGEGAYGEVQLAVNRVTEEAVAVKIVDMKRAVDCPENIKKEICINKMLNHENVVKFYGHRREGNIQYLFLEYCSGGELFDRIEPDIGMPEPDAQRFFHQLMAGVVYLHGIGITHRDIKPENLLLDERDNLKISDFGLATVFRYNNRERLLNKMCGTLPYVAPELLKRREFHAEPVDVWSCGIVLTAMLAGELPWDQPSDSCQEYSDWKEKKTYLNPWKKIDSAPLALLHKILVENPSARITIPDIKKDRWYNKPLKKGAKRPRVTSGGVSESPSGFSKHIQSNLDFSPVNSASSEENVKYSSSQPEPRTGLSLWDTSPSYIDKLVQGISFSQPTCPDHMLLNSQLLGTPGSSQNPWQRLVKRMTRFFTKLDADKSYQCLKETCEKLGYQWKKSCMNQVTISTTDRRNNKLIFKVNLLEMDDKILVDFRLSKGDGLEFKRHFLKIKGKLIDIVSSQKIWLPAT
Type: biochemical

| IC50 | Compound |
| --- | --- |
| ≤ 1 µM and 0.1 to 1 µM | N#Cc1cnc(Nc2cc(N3CCC(N)CC3)ncn2)cn1 [Compound Z-008, 5-(6-(4-Aminopiperidin-1-yl)pyrimidin-4-ylamino)pyrazine-2-carbonitrile] |
| 1 to 10 µM | N#Cc1cnc(Nc2cc(NCCN)ncn2)cn1 [Compound Z-020, 5-(6-(2-Aminoethylamino)pyrimidin-4-ylamino)pyrazine-2-carbonitrile] |
| ≤ 1 µM and 0.1 to 1 µM | N#Cc1cnc(Nc2cc(NCCCN)ncn2)cn1 [Compound Z-021, 5-(6-(3-Aminopropylamino)pyrimidin-4-ylamino)pyrazine-2-carbonitrile] |
| 1 to 10 µM | N#Cc1cnc(Nc2cc(NCCCO)ncn2)cn1 [Compound Z-040, 5-(6-(3-Hydroxypropylamino)pyrimidin-4-ylamino)pyrazine-2-carbonitrile] |
